Ab-14 heavy chain CDR variants: yeast mating affinities

Antigen: PDVDLGDISGINAS, a 14-residue peptide of the SARS-CoV-2 spike HR2 region.

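Phage display of a naive human antibody library on the peptide gave the parent. These sequences belong to a second round, designed from the earlier measurements on random variants of the parent. Group labels follow the data file (En: ensemble of fine-tuned language models; HC: hill climbing; Gen: genetic algorithm; Gibbs: Gibbs sampling; a sequence that several methods proposed may carry one label only). The assay is AlphaSeq: two haploid yeast populations carry antibody and antigen on their surface. After mating in shaken culture at 30 °C for 16 h, diploids were selected and their barcode pairs sequenced. A regression on co-assayed BCL2-family reference pairs converts the normalised counts of each replicate to an apparent Kd. Mating was done six times.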

The variants keep the light chain, the linker and the frameworks of Ab-14 (scFv order VH, the linker GGGGSGGGGSGGGGS, VL).
VH: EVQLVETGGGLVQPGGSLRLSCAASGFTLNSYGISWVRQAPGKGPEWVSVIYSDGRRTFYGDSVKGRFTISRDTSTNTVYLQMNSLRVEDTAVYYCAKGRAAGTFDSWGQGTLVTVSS
VL: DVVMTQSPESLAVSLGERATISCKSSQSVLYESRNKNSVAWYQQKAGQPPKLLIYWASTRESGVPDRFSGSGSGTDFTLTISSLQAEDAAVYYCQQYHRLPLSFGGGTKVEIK

Variants are written as CDR1, CDR2 and CDR3 of the heavy chain (limits as in the source). Parent: GFTLNSYGIS, VIYSDGRRTFYGDSVK, GRAAGTFDS. Variants here have more than six changes. Values are log10 of the apparent Kd in nM; lower means stronger binding. The mean shown is taken over the replicates in which the pair was detected. An entry "nd" has no value in the source: the pair was not observed among the diploids in any replicate. This suggests poor binding but is not conclusive.

The variant GFDLNEYGIS / VIYADGKRTFYADSVK / GNVAGTFDI [En_Gen] showed -0.47 (6 of 6 replicates; controls 1 of 18).
The variant GFQIDEYGIS / VIYADGLRTVYDDAVK / GMDTGLFMI [En_Gibbs] showed nd (0 of 6 replicates; controls 0 of 18).
The variant GFDLNEYGIS / VIYADGVRTAYTDSVK / GNQAGTFDI [En_Gen] showed -0.19 (6 of 6 replicates; controls 1 of 18).
The variant GFSLDEYGVS / VIYADGVRQFYCDDVK / GGIAGTFLY [En_Gibbs] showed 1.14 (4 of 6 replicates; controls 0 of 18).
The variant GFNLAEYGIS / VIYADGRRVAYANAVK / GKNGMNFSF [En_Gibbs] showed 2.99 (2 of 6 replicates; controls 0 of 18).
The variant GFELDEYGIS / VIYADGRRTFYADSVK / GEAAGTFDI [En_HC] showed -0.31 (6 of 6 replicates; controls 0 of 18).
The variant GFDLNEYGIS / VIYADGMRTAYANDVK / GNVAGTFDT [En_Gen] showed 0.45 (6 of 6 replicates; controls 0 of 18).
The variant GFDLNEYGIS / VIYADGKRTAYIDSVK / GENAGTFDV [En_Gen] showed 0.47 (6 of 6 replicates; controls 1 of 18).
The variant GFDLDEYGIS / VIYADGRRTFYQDSVK / GENAGTFDQ [En_HC] showed 4.12 (1 of 6 replicates; controls 0 of 18).
The variant GFDLNEYGIS / VIYADGKRTAYIDSVK / GEAAGTFDL [En_HC] showed -0.26 (6 of 6 replicates; controls 1 of 18).
The variant GFDLNEYGIS / VIYADGMRTAYVDSVK / GQNAGTFDL [En_Gen] showed -0.40 (6 of 6 replicates; controls 0 of 18).
The variant GFDLEEMGIS / VIYADGARTVYTNSVK / GSFGGQMNV [En_Gibbs] showed 2.10 (5 of 6 replicates; controls 0 of 18).
The variant GFDLNEYGIS / VIYADGRRTFYADSVK / GEAAGTFLQ [En_HC] showed -0.11 (6 of 6 replicates; controls 0 of 18).
The variant GDNINEYGIS / VIYADGLRKQYSENVK / GYNAGTLDE [En_Gibbs] showed 2.07 (1 of 6 replicates; controls 0 of 18).
The variant GMDLNEYGIS / VIYADGRRTAYINQVK / GKQRVVVSH [En_Gibbs] showed nd (0 of 6 replicates; controls 0 of 18).
The variant GFDLNEYGVS / VIYADGQRTYYTESVK / GKFWDQLFA [En_Gibbs] showed nd (0 of 6 replicates; controls 0 of 18).
The variant GFTLDEYGIS / VIYADGRRTFYADSVK / GEVAGTFDQ [En_HC] showed -0.62 (6 of 6 replicates; controls 0 of 18).
The variant GFDLDEYGIS / VIYADGKRTAYADKVK / GNNAGTFDV [En_Gen] showed -0.24 (6 of 6 replicates; controls 1 of 18).
The variant GFDLQEYGIS / VIYADGHRTAYKQKVK / GQIAGGQFD [En_Gibbs] showed 1.99 (1 of 6 replicates; controls 0 of 18).
The variant GFDLNEYGIS / VIYADGVRTFYADSVK / GSEAGTFNM [En_HC] showed -0.98 (6 of 6 replicates; controls 0 of 18).
The variant GFDLNEYGIS / VIYADGMRTFYSDSVK / GQTAGTFDE [En_HC] showed 0.09 (6 of 6 replicates; controls 0 of 18).
The variant GFDIQEYGIS / VIYADGMRVSYTNTVK / GGNSMISAT [En_Gibbs] showed nd (0 of 6 replicates; controls 0 of 18).
The variant GFDLNEYGIS / VIYADGLRTSYADSVK / GQNAGTFDM [En_HC] showed -0.70 (5 of 6 replicates; controls 0 of 18).
The variant GFDLNEYGIS / VIYADGKRTAYDDSVK / GQVAGTFDS [En_HC] showed -0.47 (6 of 6 replicates; controls 0 of 18).
The variant GFDLNEYGIS / VIYADGMRTFYSDSVK / GNAAGTFDV [En_HC] showed -0.49 (6 of 6 replicates; controls 0 of 18).
The variant GFDLDEYGIS / VIYADGMRTFYADDVK / GENAGTFDV [En_Gen] showed -0.21 (6 of 6 replicates; controls 1 of 18).
The variant GFDLNEYGIS / VIYADGQRTAYADSVK / GDNAGTFDV [En_Gen] showed -0.40 (6 of 6 replicates; controls 0 of 18).
The variant EFDIQEYGIS / VIYADGKREAYKDNFK / GNVAGTFDA [En_Gibbs] showed 0.43 (6 of 6 replicates; controls 0 of 18).
The variant GFDLEDYGIS / VIYADGRRTFYSDSVK / GEIAGTFDE [En_HC] showed -0.38 (6 of 6 replicates; controls 0 of 18).
The variant GFDLDEYGIS / VIYADGMRKAYADDVK / GENAGTFDV [En_Gen] showed -0.56 (6 of 6 replicates; controls 0 of 18).
The variant GFDLDEQGIS / VIYADGQRTAYADQVK / GMNGVIART [En_Gibbs] showed nd (0 of 6 replicates; controls 1 of 18).
The variant GFDLNEYGIS / VIYADGRRTAYSDSVK / GEVAGTFVL [En_HC] showed 0.11 (6 of 6 replicates; controls 1 of 18).
The variant GFDLNEYGIS / VIYADGQRTAYADSVK / GNEAGTFDM [En_Gen] showed 1.44 (1 of 6 replicates; controls 0 of 18).
The variant GFDLDEYGIS / VIYADGRRTAYADSVK / GQNAGTFDT [En_Gen] showed nd (0 of 6 replicates; controls 0 of 18).
The variant GFDLNEYGIS / VIYADGVRTAYVDSVK / GENAGTFDT [En_Gen] showed 0.28 (4 of 6 replicates; controls 0 of 18).
The variant GPGLQEYGIS / VIYADGIRSAYTDDVK / GQNAGHFLE [En_Gibbs] showed nd (0 of 6 replicates; controls 0 of 18).

In the paper, a design with two or fewer of six values counts as a poor binder. Values of this round are not directly comparable with the first-round values of the same sequences. Background: pairings of all heavy chain designs with three empty control strains gave a value in 1% of cases (median 2.08, 5th percentile 0.84). Values in that range, when seen in few replicates, are hard to tell from nonspecific mating. For each scFv, signals with the empty controls are counted beside the result.

The measurements come from Li et al. 2023 (doi:10.1038/s41467-023-39022-2) through the FLAb antibody collection.